Screening results as filed in PubChem.
The list is not random: actives were taken first. Their share in the collection is about 2.8%.
MITF act – activators of MITF-driven TRPM1 promoter activity in SK-MEL-5 cells; activation, % at 12.5 µM; hit rate 0.75% among 300,000; SK-MEL-5 TRPM1-promoter luciferase, 24 h; % of positive control, neutral wells = 0;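 active means mean activation of at least 80% with every replicate also reaching 80%; inconclusive means mean reaches 80% but some replicate falls short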;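 further: 0% = neutral control wells and 100% = parthenolide positive control wells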
Wnt bcat act – Wnt/beta-catenin pathway activation; activation, % at 9.35 µM; hit rate 1.2% among 300,000; Wnt/beta-catenin reporter cell assay, activator, plate reader; in the data active means activation above about 30%, passing the limit was not always enough; inconclusive means no clear call, values can overlap the other calls;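 further: 0% = neutral control wells and 100% = positive control wells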
PglD inh – PglD (C. jejuni) enzyme inhibition; purified PglD enzyme, DTNB colorimetric CoA detection; inhibition, % at 12.5 µM; hit rate 0.098% among 360,000; AID 602405; in the data active means inhibition above about 16%, passing the limit was not always enough; inconclusive means no clear call, values can overlap the other calls
miR122 inh – miR-122 inhibition in Huh7 cells. Huh7 miR-122 Renilla luciferase sensor, 48 h; neutral wells = 0, positive control = 100. activation (reporter increase), % at 12.5 µM. hit rate 0.3% among 340,000. AID 602342;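 active means mean replicate activation score at least 90 and every replicate individually at or above 90; inconclusive means only one of the two criteria met; inactive means neither criterion met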;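 further: higher luciferase means less miR-122 activity so hits act as miR-122 inhibitors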
UUG fidelity – modulators of yeast start codon fidelity, primary screen, whole organism, S. cerevisiae, single point, plate reader | AID 602363, 2012 | S. cerevisiae UUG-firefly luciferase reporter, luminescence/redox ratio | activity score, % at 18.7 µM | hit rate 0.13% among 350,000;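 active = replicate mean at a twofold rise or more, about +100% in these data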;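 also: firefly luciferase made from a UUG start codon reports start codon fidelity; reporter light over untreated wells divided by growth signal over untreated wells; some hits fall short of that in this replicate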
esBAF inh – blocks esBAF chromatin remodeling in mouse ES cells. Bmi1-luciferase knock-in reporter, 24 h; 100% = twice the neutral-well signal. reporter increase, % at 12.5 µM. hit rate 2% among 350,000. AID 602393; in the data active means activation above about 40%; inconclusive means no clear call, values can overlap the other calls;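 further: 0% = median of the plate's neutral control wells and 100% = double that signal; a rise in the Bmi1 reporter signal indicates esBAF inhibition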
Numbers without * were called inactive; u = inconclusive; x = no result given; [ ] = dose if it differs, or a comment.

The line under a structure holds: MITF act, Wnt bcat act, PglD inh, miR122 inh, UUG fidelity, esBAF inh
1	COc1ccc(/C=N/n2cnnc2SCCO)cc1OC
→ -0.5, x, -0.5, -2.6, -11.4, 6.1
2	Cc1noc(C)c1S(=O)(=O)Nc1ccc2c(c1)C(=O)N([C@H](C)CO)C[C@H](C)[C@@H](CN(C)C(=O)Nc1ccccc1)OCCCC[C@@H](C)O2
→ x, x, 9.8, 4.9[16.7 µM], -6.0, -3.1
3	CC1/C(=C\c2ccc(Cl)cc2)C(=O)C2CC1C2(C)C (stereo unspecified)
→ -2.0, -0.1, -3.9, -3.4, -7.3, 6.4
4	CC1CCC(C(C)C)C(=O)/C1=C/c1ccc(N)cc1 (stereo unspecified)
→ 111.9*, 52.9*, -0.3, 42.7, -31.9, 58.7*
5	C[C@@H]1CN([C@H](C)CO)C(=O)c2cc(NC(=O)Cc3ccccc3)ccc2O[C@@H](C)CCCCO[C@@H]1CN(C)C
→ x, x, 1.3, 3.3[16.7 µM], 22.7, 5.0
6	CC(C)C#Cc1cnc2c(c1)C(=O)N([C@@H](C)CO)C[C@H](C)[C@@H](CN(C)Cc1ccccc1F)O2
→ x, x, -1.9, -2.7[16.7 µM], 5.0, -0.7
7	Cc1ccc(SCC(=O)NC(=O)NC(C)C)c(C)c1
→ 13.1, -0.9, x, x, x, x
8	Cc1ccc(SCC(=O)NC(=O)NCCC(C)C)c(C)c1
→ 6.9, 41.5*, -1.2, 8.8, -8.1, x
9	COc1ccc(CN(C)C[C@@H]2OCCCC[C@@H](C)Oc3ccc(NC(=O)Nc4c(C)noc4C)cc3C(=O)N([C@H](C)CO)C[C@@H]2C)cc1
→ x, x, 1.8, 2.1[16.7 µM], 6.0, -2.2
10	C/C(=N\Nc1ccc(C(=O)O)cc1)c1ccc(Cl)s1
→ x, u, 4.6, 12.1, -31.9, 67.0*
11	C/C(=N\Nc1ccc(C(=O)O)cc1)c1ccc(Br)cc1
→ -28.5, 3.6, -2.8, 10.8, -10.9, -20.0
12	Cc1nc(C)c(-c2csc(NCc3ccco3)n2)s1
→ 67.5, 10.6, 0.2, -6.6, -10.4, 61.7*
13	Cc1nnc(NCc2ccco2)s1
→ 4.8, -3.1, -1.7, -1.2, -6.6, 7.0
14	c1coc(CNc2nc3ccccc3s2)c1
→ 28.6, 35.6*, 1.1, 12.2, -19.1, 27.7
15	c1ccc(CN2CN=C(Nc3nc4ccccc4s3)NC2)cc1
→ 4.0, 8.7, -4.0, -5.4, -12.3, 8.5
16	c1coc(CN2CN=C(Nc3nc4ccccc4s3)NC2)c1
→ 38.7, 18.3, 0.1, 2.9, -13.8, 50.6*
17	COc1ccccc1-c1cn(CC[C@H]2CC[C@@H](NC(=O)NC(C)C)[C@@H](CO)O2)nn1
→ x, x, 0.6, x, -1.4, 1.8
18	CCc1ccc(-c2ccc(C(=O)O)cc2)nc1
→ 34.0, 26.2, -4.6, 0.1, -20.4, 45.7*
19	N#Cc1cc2cc3c(cc2nc1N1CCCCC1)OCCO3
→ 102.1*, 32.4*, 1.3, 2.2, -9.3, 69.6*
20	N#C/C(=C\c1ccc(N2CCCCC2)o1)C(=O)Nc1cccc(Br)c1
→ 3.6, 37.9*, x, x, x, x
21	COCCNC(=O)c1ccc2c(Cl)c3c(nc2c1)CCC3
→ 100.0*, 35.9*, -2.3, -18.2, -10.0, u
22	C[C@@H]1CN([C@@H](C)CO)C(=O)c2cc(NS(=O)(=O)c3ccccc3)ccc2O[C@H]1CN(C)S(C)(=O)=O
→ x, x, -0.5, -2.4[16.7 µM], -10.2, -2.8
23	COn1c(-c2ccccc2)nc2ccc(Cl)cc21
→ x, x, -4.9, -3.8, -15.8, 65.4*
24	O=[N+]([O-])c1ccc2nc(-c3ccccc3)n(OCc3ccc(Cl)cc3)c2c1
→ x, x, -1.9, -9.5, -0.7, 62.2*
25	CC(=O)Nc1ccccc1NC(=O)c1ccc2c(c1)OCO2
→ x, 1.5, 0.3, 2.6, -16.3, -6.7
26	N#Cc1ccccc1NC(=O)c1ccc2c(c1)OCCO2
→ x, 5.9, -1.7, -1.3, -18.8, 44.9*
27	Cc1ccccc1NC(=O)CC(=O)Nc1ccccc1C
→ -11.1, -1.7, -5.2, x, 1.8, -4.7
28	Cc1ccccc1NC(=O)c1ccc2c(c1)OCCO2
→ 66.9, x, 4.0, -10.5, -17.3, 46.7*
29	Cc1ccccc1NC(=O)C(=O)Nc1ccccc1C
→ 42.6, 27.5, 0.9, 4.5, -18.6, 45.3*
30	O=C(NC(=S)Nc1ccc2c(c1)OCO2)c1ccccc1
→ 73.6, x, 4.3, x, -17.5, 33.4
31	N#Cc1ccccc1NC(=O)COC(=O)c1ccc2c(c1)OCCO2
→ -9.4, x, -1.9, x, -21.6, 5.2
32	O=C(NC(=S)Nc1ccccc1Br)c1ccc2c(c1)OCO2
→ 110.0*, 2.3, -7.4, 1.8, -2.4, x
33	C[C@@H]1CN([C@@H](C)CO)C(=O)c2cc(Br)cnc2O[C@@H]1CN(C)C(=O)C1CCOCC1
→ x, x, -1.0, -2.7[16.7 µM], 43.9, -6.6
34	C[C@@H]1CCCCO[C@H](CN(C)S(=O)(=O)c2cccs2)[C@@H](C)CN([C@H](C)CO)C(=O)c2cc(NS(=O)(=O)c3cn(C)cn3)ccc2O1
→ x, x, -2.6, 14.0[16.7 µM], 16.8, -9.6
35	Cc1ccccc1NC(=O)c1nnn(-c2ccc3c(c2)OCCO3)c1N
→ 86.5*, 36.5*, -4.5, -2.4, -17.7, x
36	O=C(Nc1cccc2cccnc12)c1ccc2c(c1)OCCO2
→ 54.8, 3.8, -1.9, 5.8, -11.7, 47.8*
37	Cc1cccc(NC(=O)c2ccc3c(c2)OCCO3)c1C
→ 113.0*, 5.7, -1.6, -5.2, -18.7, 54.7*
38	CCOc1ccccc1NC(=O)c1nnn(-c2ccc3c(c2)OCCO3)c1N
→ x, 1.8, 2.5, -2.4, -5.4, 21.6
39	C[C@H]1CN([C@@H](C)CO)S(=O)(=O)c2ccc(C#CC3(O)CCCC3)cc2O[C@@H]1CN(C)C(=O)Nc1ccccc1
→ x, x, 2.0, 30.0[16.7 µM], -1.9, 5.7
40	Cc1ccccc1C(=O)Oc1cccc2c(O)cccc12
→ x, -1.4, -1.8, 5.0, 2.5, 12.6

Compound profiles, as listed above:
C/C(=N\Nc1ccc(C(=O)O)cc1)c1ccc(Cl)s1 is listed as MITF act: x; Wnt bcat act: u; PglD inh: 4.6; miR122 inh: 12.1; UUG fidelity: -31.9; esBAF inh: 67.0*
C[C@@H]1CN([C@@H](C)CO)C(=O)c2cc(NS(=O)(=O)c3ccccc3)ccc2O[C@H]1CN(C)S(C)(=O)=O is listed as MITF act: x; Wnt bcat act: x; PglD inh: -0.5; miR122 inh: -2.4[16.7 µM]; UUG fidelity: -10.2; esBAF inh: -2.8
Cc1ccccc1NC(=O)CC(=O)Nc1ccccc1C is listed as MITF act: -11.1; Wnt bcat act: -1.7; PglD inh: -5.2; miR122 inh: x; UUG fidelity: 1.8; esBAF inh: -4.7

Additional entries.
The line under a structure holds: MITF act, Wnt bcat act, PglD inh, miR122 inh, UUG fidelity, esBAF inh
41	Cc1ccccc1S(=O)(=O)Oc1ccc2ccc(O)cc2c1
→ x, 9.1, -2.3, 3.0, -12.9, 74.4*
42	Cc1ccccc1C(=O)Oc1ccc2ccc(O)cc2c1
→ x, -1.6, 3.0, x, -12.3, 61.6*
43	COc1ccc(NC(=O)N(C)C[C@H]2OCCCC[C@@H](C)Oc3ccc(NC(=O)Nc4ccccc4)cc3C(=O)N([C@@H](C)CO)C[C@H]2C)cc1
→ x, x, 1.8, 1.1[16.7 µM], -2.1, -1.1
44	Cc1cc(C)cc(C(=O)Nc2cccnc2Cl)c1
→ -0.7, 0.4, 2.3, x, -2.9, -5.0
45	Cc1ccc(C(=O)Nc2cccnc2Cl)cc1Cl
→ 38.3, 14.3, 4.3, 8.6, -14.3, 53.9*
46	Cc1cccc(NC(=O)CNC(=O)COc2ccc(C(=O)c3ccc(F)cc3)cc2)c1C
→ -15.1, 42.4*, x, x, x, x
47	NC(=O)C1CC(=O)N(c2ccc(OCC(=O)Nc3ccccc3F)cc2)C1 (stereo unspecified)
→ 68.2, 33.8*, -3.4, -1.2, 1.0, 29.4
48	Cc1ccc(OCC(=O)Nc2ccccc2F)cc1
→ x, 41.3*, -1.5, -3.6, -32.9, x
49	Cc1cccc(NC(=O)CNC(=O)COc2ccc(-c3ccc(C#N)cc3)cc2)c1C
→ 8.2, -6.5, x, x, x, x
50	O=C(C[C@@H]1CC[C@H]2[C@@H](COC[C@H](O)CN2Cc2cc(F)ccc2F)O1)N[C@@H]1CCN(Cc2ccccc2)C1
→ x, x, 0.4, -5.3[16.7 µM], x, 2.5
51	C[C@@H]1CN([C@H](C)CO)C(=O)c2cccc(NS(=O)(=O)c3cccs3)c2O[C@@H]1CN(C)C
→ x, x, 3.7, 1.7[16.7 µM], -1.0, -1.9
